{"source": "ChEMBL document CHEMBL4049456", "about": "“Identification of 4-(Aminomethyl)-6-(trifluoromethyl)-2-(phenoxy)pyridine Derivatives as Potent, Selective, and Orally Efficacious Inhibitors of the Copper-Dependent Amine Oxidase, Lysyl Oxidase-Like 2 (LOXL2)” (J Med Chem, 2017)", "key": {"[1]": {"target": "T1, Lysyl oxidase homolog 2 (Homo sapiens) (UniProt Q9Y4K0)", "T1 sequence (whole entry)": "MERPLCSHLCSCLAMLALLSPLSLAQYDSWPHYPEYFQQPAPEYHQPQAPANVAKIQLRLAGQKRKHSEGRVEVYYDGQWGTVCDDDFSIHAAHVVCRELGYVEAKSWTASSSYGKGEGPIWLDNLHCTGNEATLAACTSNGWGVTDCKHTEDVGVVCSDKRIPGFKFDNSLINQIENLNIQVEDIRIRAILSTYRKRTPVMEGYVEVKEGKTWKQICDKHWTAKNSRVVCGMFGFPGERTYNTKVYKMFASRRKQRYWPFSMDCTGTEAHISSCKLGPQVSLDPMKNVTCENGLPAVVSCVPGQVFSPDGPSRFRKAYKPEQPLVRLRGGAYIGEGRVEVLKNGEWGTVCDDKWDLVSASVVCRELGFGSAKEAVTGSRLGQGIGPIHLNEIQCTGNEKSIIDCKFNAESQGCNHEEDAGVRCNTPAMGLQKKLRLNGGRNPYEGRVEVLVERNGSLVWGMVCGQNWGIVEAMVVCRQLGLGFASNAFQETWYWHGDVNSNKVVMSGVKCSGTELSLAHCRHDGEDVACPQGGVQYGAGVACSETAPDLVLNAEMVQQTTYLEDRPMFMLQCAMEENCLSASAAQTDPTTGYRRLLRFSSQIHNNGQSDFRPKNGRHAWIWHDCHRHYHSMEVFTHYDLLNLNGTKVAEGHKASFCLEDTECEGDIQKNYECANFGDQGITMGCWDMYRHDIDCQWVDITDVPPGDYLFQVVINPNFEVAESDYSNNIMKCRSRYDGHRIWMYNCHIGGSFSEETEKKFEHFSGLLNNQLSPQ", "test": "Irreversible inhibition of human LOXL2 assessed as catalytic activity preincubated for 2 hrs followed by substrate addition measured every 2 mins for 1 hr by amplex red reagent-based fluorescence assay relative to control", "set-up": "concentration or dose not given beside the values"}, "[2]": {"target": "T1, Lysyl oxidase homolog 2 (Homo sapiens)", "test": "Irreversible inhibition of human LOXL2 assessed as reduction of H2O2 production from oxidative deamination of DAP at 1000 times IC50 preincubated for 2 hrs followed by compound washout and subsequent incubation for 2 hrs prior to substrate addition measured every 2 mins for 40 mins by amplex red reagent-based fluorescence assay relative to control", "method_in_brief": "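Wells were washed repeatedly with PBS and equilibrated for 2 h. Recovered activity was then compared with nonwashed controls.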"}, "[3]": {"target": "T1, Lysyl oxidase homolog 2 (Homo sapiens)", "test": "Inhibition of human LOXL2 expressed in CHO cells assessed as reduction of H2O2 production from oxidative deamination of DAP preincubated with enzyme followed by substrate addition measured every 2 mins for 1 hr by amplex red reagent-based fluorescence assay", "type": "cell-based", "method_in_brief": "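Serum-free concentrated conditioned media from CHO cells stably expressing human LOXL2 used as enzyme source. Test compound preincubated 2 h with enzyme, then 1,5-diaminopentane (DAP) substrate added and released H2O2 measured. IC50 values are geometric means ×/÷ geometric standard deviation from at least 3 separate experiments.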"}}, "data": [{"smiles": "N#CCCN", "values": [{"measurement": "inhibition", "setting": "[1]", "value": 98, "unit": "%"}, {"measurement": "inhibition", "setting": "[2]", "value": 88, "unit": "%"}, {"measurement": "inhibition", "setting": "[3]", "value": "Tde"}]}]}
